Experimental data as given in US20260077056A1, “LINKER-PAYLOAD COMPOUND, CONJUGATES AND APPLICATIONS THEREOF” (priority 2022, published 2026).

Assays:
[1] = tested on: NCI-N87 human gastric cancer cells; assay: In vivo efficacy in NCI-N87 CDX model; set-up: species or system female BALB/c nude mice; conditions: 5 mg/kg
Description: NCI-N87 human gastric cancer cells were implanted into the right flank of female BALB/c nude mice. The animals were randomly divided into 4 groups with 5 tumor-bearing mice in each group on day 6 after tumor inoculation. […] Tumor volume was measured twice weekly in two dimensions using a caliper, and the volume was expressed in mm^3 using the formula: V=0.5 a×b^2 where a and b are the long and short diameters of the tumor, respectively. The body weight of the mice were measured twice a week, and abnormal behavior was observed daily such as mobility, food and water consumption.
The T/C (%) value is calculated for each group using the formula: T/C %=TRTV/CRTV×100% (TRTV: treatment group RTV; CRTV: control group RTV; RTV: relative tumor volume). The RTV=Vt/V0, V0 is the average tumor volume on the first day of treatment, VT is the average tumor volume on a given day, the data of TRTV is from the same day as CRTV.
TGI is calculated for each group using the formula: TGI (%)=[1−(Ti−T0)/(Vi−V0)]×100; Ti is the average tumor volume of a treatment group on a given day, T0 is the average tumor volume of the treatment group on the first day of treatment, Vi is the average tumor volume of the vehicle control group on the same day with Ti, and V0 is the average tumor volume of the vehicle group on the first day of treatment.

[2] = tested on: Capan-1 xenograft; assay: In vivo efficacy in Capan-1 CDX model; set-up: species or system female BALB/c nude mice

In the case of Enhertu, the “tumor inhibition effect, in words” value ([1]; NCI-N87 CDX model) is reported as “excellent tumor inhibition effect”, the “T/C (%)” value ([1]; NCI-N87 xenograft, PG-D35) is reported as 12.81% and the “TGI (%)” value ([1]; NCI-N87 xenograft, PG-D35) is reported as 103.79%. For the same substance, the “Tumor volume (mm^3) on day 35” value ([1]; NCI-N87 xenograft, PG-D35) was 148 ± 55 mm^3, the “tumor inhibition effect, in words” value ([2]; Capan-1 CDX model) was “obviously tumor inhibition effect” and the “T/C (%)” value ([2]; Capan-1 xenograft, PG-D35) was 8.23%.
